Source: patent publication US7884081B2, “Methods of modulating tubulin deacetylast activity” (The J. David Gladstone Institutes, priority 2002, dated 2011)

By UniProt entry, the sequences of proteins in these tests, tags left out. Where a name states a change or a piece, a line headed by the entry shows the natural chain unless it says otherwise.
UniProt Q9UBN7: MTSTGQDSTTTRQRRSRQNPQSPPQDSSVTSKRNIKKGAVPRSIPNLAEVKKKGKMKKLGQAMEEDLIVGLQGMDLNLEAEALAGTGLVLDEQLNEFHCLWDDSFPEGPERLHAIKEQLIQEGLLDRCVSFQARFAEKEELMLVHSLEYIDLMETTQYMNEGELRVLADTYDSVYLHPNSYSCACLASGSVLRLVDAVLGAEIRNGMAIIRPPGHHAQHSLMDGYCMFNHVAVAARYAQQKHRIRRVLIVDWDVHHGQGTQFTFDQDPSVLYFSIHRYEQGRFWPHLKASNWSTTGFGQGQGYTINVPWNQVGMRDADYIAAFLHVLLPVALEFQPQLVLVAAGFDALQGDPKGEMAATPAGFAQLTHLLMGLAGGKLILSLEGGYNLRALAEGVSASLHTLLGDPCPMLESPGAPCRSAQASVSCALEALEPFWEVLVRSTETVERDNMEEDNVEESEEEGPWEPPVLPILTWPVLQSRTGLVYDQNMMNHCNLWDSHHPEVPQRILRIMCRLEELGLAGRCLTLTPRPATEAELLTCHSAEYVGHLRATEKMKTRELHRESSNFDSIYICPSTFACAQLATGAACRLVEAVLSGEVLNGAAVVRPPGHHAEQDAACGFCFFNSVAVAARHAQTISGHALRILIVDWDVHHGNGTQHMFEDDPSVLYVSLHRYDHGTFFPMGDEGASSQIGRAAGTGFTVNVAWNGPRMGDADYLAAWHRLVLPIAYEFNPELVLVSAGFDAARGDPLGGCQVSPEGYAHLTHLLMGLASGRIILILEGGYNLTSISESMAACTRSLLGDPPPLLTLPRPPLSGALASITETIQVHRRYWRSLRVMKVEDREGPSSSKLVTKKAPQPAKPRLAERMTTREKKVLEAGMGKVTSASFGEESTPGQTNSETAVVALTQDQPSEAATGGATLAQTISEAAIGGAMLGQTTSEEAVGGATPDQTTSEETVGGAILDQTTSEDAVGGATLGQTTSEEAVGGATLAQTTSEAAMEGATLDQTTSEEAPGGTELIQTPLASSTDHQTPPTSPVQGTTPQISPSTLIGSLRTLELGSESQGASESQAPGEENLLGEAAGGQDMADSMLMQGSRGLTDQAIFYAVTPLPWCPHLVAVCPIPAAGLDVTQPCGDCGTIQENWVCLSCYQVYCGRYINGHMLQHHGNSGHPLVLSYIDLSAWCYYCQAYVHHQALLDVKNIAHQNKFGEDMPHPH

Molecular target: HDAC6-FLAG (Homo sapiens, UniProt Q9UBN7)
Experiment: Histone deacetylase assay, immunoprecipitated HDAC6-FLAG on [3H]acetylated histone H4 peptide
Settings: 400 nM TSA

Trichostatin A
HDAC activity of HDAC6-FLAG: potently inhibited
